Molecular target: T1, B1 receptor (Oryctolagus cuniculus, UniProt P48748)
T1 sequence (P48748 1-352): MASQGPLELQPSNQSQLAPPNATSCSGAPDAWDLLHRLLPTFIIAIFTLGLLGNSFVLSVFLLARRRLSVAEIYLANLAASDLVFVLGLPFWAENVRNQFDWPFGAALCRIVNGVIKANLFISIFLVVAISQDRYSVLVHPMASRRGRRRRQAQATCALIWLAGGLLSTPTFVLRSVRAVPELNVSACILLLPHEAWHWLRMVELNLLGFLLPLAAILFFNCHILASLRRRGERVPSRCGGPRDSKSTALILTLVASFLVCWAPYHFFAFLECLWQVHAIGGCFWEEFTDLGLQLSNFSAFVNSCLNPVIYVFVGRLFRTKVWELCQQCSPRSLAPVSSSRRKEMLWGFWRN
Assay: cell-based
Details: Rb.A. pA2, apparent affinity as antagonist vs desArg9BK; antagonist applied 10 min before; Inactive = no detectable antagonistic effect at ≦ 10 μg/ml
Source text: Tissues were taken from New Zealand white rabbits (1.5–2.5 kg) and Dunken Hartley guinea pigs (250–350 g) of either sex, killed by stunning and exsanguination. Umbilical cords were taken from healthy women 22–40 years old after spontaneous delivery at term. The rabbit jugular vein (RbJV), the guinea pig ileum (GPI), two preparations containing B2 receptors, the rabbit aorta (RbA) (B1 receptor) and the human umbilical vein (HUV), a mixed preparation containing both B1 and B2 receptors^10, were used. Helical strips of RbJV treated with 1 μmol/L of captopril to avoid peptide degradation by the angiotensin-converting enzyme (ACE), alias kininase II were prepared according to Gaudreau et al.^11 Helical strips of RbA devoid of endothelium were prepared according to Furchgott and Bhadrakom^12. Longitudinal segments of GPI were prepared with the procedure described by Rang^13. Helical strips of HUV were prepared according to Gobeil et al.^10. […] Changes of tension produced by the various agents were measured with Grass isometric transducers (model FT 03C, Grass Instrument Co., Quincy, Mass.). […] Before testing the drugs, the tissues were allowed to equilibrate for 60–120 min during which time the tissues were repeatedly washed and the tension readjusted every 15 min. […]

Work on `CC(C)C[C@H](NC(=O)[C@@H]1CCCN1C(=O)[C@H](CO)NC(=O)[C@H](Cc1ccccc1)NC(=O)CNC(=O)[C@@H]1CCCN1C(=O)[C@@H]1CCCN1C(=O)[C@H](CCCN=C(N)N)NC(=O)[C@@H](N)CCCCN)C(=O)O` [Compound 2, Lys(Leu^8)desArg^9BK, reference compound] yielded a Kb of 3.55 nM.
